Values quoted from earlier work in patent US6569404B1, “Phase shift colloids as ultrasound contrast agents” (priority 1993, dated 2003).

Settings: Chemical List of low boiling liquids, Example 45; cited from earlier work

## Carbonyl fluoride
  Boiling Point: −83.0 degrees Celcius
